PubChem BioAssay AID1347069 (National Center for Advancing Translational Sciences (NCATS), 2019)
The list shows a part of the results, in another mix than the full data. Some of these compounds have results that are not shown, active ones among them. Calls of active or inactive are those of the source. Calls follow the shape of the dose curve; as a rule, active = well fitted inhibition curve with a large enough effect; inconclusive = small, poorly fitted or top-dose-only effect; inactive = flat fitted curve, though single readings scatter.

By UniProt entry, the sequences of proteins in these tests, tags left out.
UniProt Q99816, whole entry: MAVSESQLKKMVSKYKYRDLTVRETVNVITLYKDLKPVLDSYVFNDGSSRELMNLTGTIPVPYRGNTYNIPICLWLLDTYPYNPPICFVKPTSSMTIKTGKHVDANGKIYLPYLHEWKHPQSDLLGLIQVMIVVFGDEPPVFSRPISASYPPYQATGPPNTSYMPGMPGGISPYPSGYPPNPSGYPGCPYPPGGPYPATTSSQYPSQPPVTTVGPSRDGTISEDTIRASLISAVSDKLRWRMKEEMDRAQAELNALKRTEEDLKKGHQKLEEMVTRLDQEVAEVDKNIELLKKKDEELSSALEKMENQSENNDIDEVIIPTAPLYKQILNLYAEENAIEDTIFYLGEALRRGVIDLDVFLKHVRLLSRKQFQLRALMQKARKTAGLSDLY

Biological target: Tumor susceptibility gene 101 protein (Homo sapiens) (UniProt Q99816)
Experiment: qHTS Validation Assay for Inhibitors of HIV-1 Budding by Blocking the Interaction of PTAP/TSG101: Sytravon Library Screen; also: 0% is about no effect
Conditions: Fluorescence polarization, FITC-PTAP peptide/Tsg101, 20 min; at 115 µM (top of the series)
Text: Stages of the HIV-1 replication cycle, specifically virus assembly and release, provide underexploited targets for the development of novel antiviral inhibitors. The late stages of HIV-1 replication are mediated by the Gag precursor protein, Pr55Gag. Expression of Pr55Gag is both necessary and sufficient for the production of virus-like particles from Gag-expressing cells. The Gag protein hijacks key host proteins involved in endocytic machinery of the host cell to promote endosomal processing and viral budding. The budding process requires a direct interaction between a […] (PTAP) motif in the p6 domain of Gag and the cellular endosomal sorting protein known as Tsg101. In this way, the Gag PTAP motif promotes the host cells to recruit viral particles to the plasma membrane where the new viral particles are released, effectively turning the host cells into viral factories. A fluorescence polarization assay has been developed to quantitatively measure the PTAP-Tsg101 interaction which can be used to screen for inhibitors of this interaction. This assay was run against the NCGC Sytravon Library collection. NIH Molecular Libraries Probe Production Network [MLPCN] NIH Chemical Genomics Center [NCGC] Grant: R03 MH087464-01A1 PI Name: Dr. Eric Freed, NCI
Two uL of the Tsg101 binding domain in buffer (10 mM HEPES pH 7.5; 0.15 M NaCl, 0.01% Tween 20; 3 mM EDTA;0.1 mM TCEP) was dispensed into Greiner black MB 1536-well plates (final concentration 10 uM). Then, 23 nL of compounds or DMSO were delivered to each well using a pin tool. Finally, 2 uL of a FITC-labeled peptide containing the PTAP motif (1) in the same buffer was dispensed (50 nM final concentration) and the binding was allowed to proceed for 20 min. at r.t. Fluorescent polarization was determined using FITC excitation and polarized emission filters on a Perkin Elmer Envision. Assay cut-off (positive/negative criteria): Actives defined by CRC class, <25 µM; Efficacy <60% inhibition. The total fluorescent intensity from S and P channels will be used to flag fluorescent compounds.

| SMILES | activity change, negative = inhibition |
| --- | --- |
| COc1ccc(C(=O)NCC2(N(C)C)CCCCC2)cc1Cl | inactive: 0.539% |
| CC(C)COc1ccc(C(=O)NCC2(N(C)C)CCCCC2)cc1 | inactive: 3.98% |
| COc1cccc(C(=O)NCC2(N3CCOCC3)CCCCC2)c1 | inactive: 0.0518% |
| CC(C)Oc1ccc(C(=O)NCC2(N(C)C)CCCCC2)cc1 | inactive: 0.48% |
| Cc1cccc(C(=O)NCC2(N(C)C)CCCCC2)c1 | inactive: -0.349% |
| COc1cc(C(=O)NCC2(N(C)C)CCCCC2)cc(OC)c1OC | inactive: 1.04% |
| CN(C)C1(CNC(=O)c2ccccc2F)CCCCC1 | inactive: -0.161% |
| CN(C)C1(CNC(=O)c2cccc(Cl)c2)CCCCC1 | inactive: -1.5% |
| CCCCOc1ccccc1C(=O)NCC1(N(C)C)CCCCC1 | inactive: -0.149% |
| CN(C)C1(CNC(=O)c2ccccc2[N+](=O)[O-])CCCCC1 | inactive: 0.892% |
| CCOc1cccc(C(=O)NCC2(N(C)C)CCCCC2)c1 | inactive: 4.46% |
